{
  "source": "patent US6310176A",
  "about": "“Antimicrobially active polypeptides” (SBL Vaccin AB, priority 1996, dated 2001)",
  "origin": "cited, not measured here",
  "details": "background, literature; cited from earlier work",
  "data": [
    {"substance": "ranalexin", "values": [
      {"measurement": "Hemolytic activity (in words)", "value": "high hemolytic activity"}
    ]}
  ]
}
